The subject of one data set is UV4 cells. As to the kind of experiment: Bioassay of HPLC fractions of extracellular medium against UV4 cells. Conditions: extracellular medium of V79-NTR^puro suspensions with SN 23862.
Another data set deals with WiDr. As to the kind of experiment: Cytotoxicity IC50 assay, 4 h drug exposure, sulphorhodamine B. Conditions: read-out: IC50 following 4 h drug exposure, mean±s.e.m.
A further data set deals with SiHa. The data set is described as above. Conditions: read-out: IC50 following 4 h drug exposure, mean±s.e.m.
For a further data set, the system named is V79^puro. The description is as above. Conditions: read-out: IC50 following 4 h drug exposure, mean±s.e.m.
Another data set concerns UV4. The description is as above.
The subject of a further data set is AA8. The data set is described as above. Conditions: read-out: IC50 following 4 h drug exposure, mean±s.e.m.
A further data set deals with SiHa-NTR^puro MCLs. Conditions: parent prodrug 100 μM in donor compartment.

The values that follow come from paper PMC2409616 (British Journal of Cancer, 2004).

SMILES strings stand for the structures.

Turning to `NC(=O)c1cc(N(CCCl)CCCl)c([N+](=O)[O-])cc1N`, the “Bioactivity of HPLC fraction against UV4 cells” value in the data set on UV4 cells is recorded as “only cytotoxic metabolite detected”. Further, the IC50 with WiDr was found to be 2750 nM; in the data set on SiHa it was 2500 nM; in the data set with V79^puro, 3940 nM; in the data set on UV4 (read-out: IC50 following 4 h drug exposure, UV4 (repair defective), mean±s.e.m.), 230 nM; in the data set on AA8 it was 8800 nM. For the same molecule, in the data set with UV4 (4 h drug exposure), the “AA8/UV4 intra-experiment IC50 ratio” value is on record as 40±4. Further, in the data set with SiHa-NTR^puro MCLs, the “Initial flux of metabolite” value amounted to 0.5 µM/h.

In general, IC50 refers to the point on the concentration scale where inhibition reaches its midpoint.
